MC4R ag barr – MC4R agonists recruiting beta-arrestin, primary screen, cell-based, luminescence, agonist arm of biased-ligand search | 360,000 compounds, 0.98% hits | activation, % at 8.9 µM | U2OS MC4R beta-arrestin complementation; percent of melanotan II response, DMSO zero | AID 540308, 2011 | Melanocortin receptor 4 (Homo sapiens), P32245;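 active means activation above a per-plate cutoff, the mean activation of sample wells on that plate plus 3 SD, cut at about 8% in these data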
ARFGAP1 inhibitor – inhibitors of rat ARFGAP1 GAP activity, primary screen, biochemical, fluorescence polarization, GDP tracer. Arfgap1-stimulated ARF1 GTP hydrolysis, GDP FP detection. inhibition, % at 16.5 µM. 360,000 compounds, 0.26% hits. AID 651572, 2012;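 active means inhibition above a per-plate limit, mean inhibition of low control wells plus 3 SD, cut at about 25% in these data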;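 further: 0% = DMSO wells with enzyme and 100% = wells lacking Arfgap1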
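system = rat Arfgap1 catalytic domain, aa 1-136 | technique = FP, GDP Alexa 633 tracer displaced from anti-GDP antibody, 620/688 nm | compound = one concentration, 16.5 µM, DMSO 1.26% | medium = HEPES-based buffer, pH 7.5 | timing = compound-enzyme preincubation 20 min, reaction 120 min, detection 60 min, 25 °C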
UUG fidelity – yeast start codon fidelity modulation; AID 602363; activity score, % at 18.7 µM; S. cerevisiae UUG-firefly luciferase reporter, luminescence/redox ratio; 0.13% of 350,000 active;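 active means replicate mean at a twofold rise or more, about +100% in these data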;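 further: firefly luciferase made from a UUG start codon reports start codon fidelity; reporter light over untreated wells divided by growth signal over untreated wells; some hits fall short of that in this replicate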
ASAP1 inh – inhibitors of human ASAP1 ArfGAP activity, primary screen, biochemical, fluorescence polarization. 360,000 compounds, 0.19% hits. Arf-GAP with SH3 domain, ANK repeat and PH domain-containing protein 1 (Homo sapiens), …. ASAP1-stimulated ARF1 GTP hydrolysis, GDP FP detection. inhibition, % at 16.5 µM; in the data active means inhibition above about 25%;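 further: 0% = vehicle with enzyme and substrate and 100% = no enzyme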
CendR NRP1 mod – modulators of CendR peptide binding to NRP-1, primary screen, biochemical, fluorescence polarization, uHTS; inhibition, % at 25 µM; FAM-RPARPAR peptide binding to NRP-1; 360,000 compounds, 0.85% hits; Neuropilin-1 (Homo sapiens), O14786;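 active means inhibition or corrected inhibition above about 18%, plus a signal ratio from 0.5 to 1.5, limit read from the data, passing the limit was not always enough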
MC4R antagonist – MC4R antagonists of cAMP signaling, primary screen, cell-based, TR-FRET, antagonist arm of biased-ligand search; Melanocortin receptor 4 (Homo sapiens), P32245; MC4R-expressing cells, MTII-stimulated cAMP, LANCE TR-FRET; inhibition, % at 6.5 µM; 360,000 compounds, 0.48% hits; AID 540295, 2011;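 active means inhibition above its plate's cutoff, the mean of tested wells on that plate plus 3 SD, cut at about 29% in these data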;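 further: 0% = Melanotan II alone and 100% = Melanotan II plus saturating MCL0020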
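Test system: U2OS cells stably expressing human melanocortin 4 receptor (MC4R); also added: Melanotan II challenge; compound: 6.5 µM single dose; timing: 30-min compound preincubation, 1-h Melanotan II challenge, 1-h detection, room temperature; signal: Eu-cAMP/anti-cAMP TR-FRET, emission 671 nm; repeats: one well per compound, no replicates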
MC4R barr ag – MC4R beta-arrestin agonists, retest, confirmation, cell-based, luminescence, U2OS; shares compounds with MC4R ag barr; U2OS MC4R beta-arrestin recruitment; scaled DMSO 0%, Melanotan II 100%; activation, % at 8.9 µM; 2,400 compounds, 31% hits; AID 602192, 2012;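 active means mean activation across replicates above the hit cutoff set in the earlier primary screen, cut at about 8% in these data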
MOR DOR agonist – agonists of MOR-DOR heterodimerization, counter-screen for MC4R biased agonist project, cell-based, luminescence | activation, % at 9.2 µM | shares compounds with MC4R ag barr | U2OS PathHunter beta-arrestin, beta-gal luminescence; percent of deltorphin B response, DMSO zero | AID 602194, 2012 | 2,400 compounds, 5.8% hits;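 active means mean activation across replicates exceeds the hit threshold derived in the earlier primary screen, cut at about 18% in these data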;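 further: 100% = deltorphin B at 0.9 µM final and 0% = DMSO alone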
The depositor's hits bear a star; . = not tested or not shown; ! = not active in a repeat. This is a sample that favours compounds with a hit; in the whole collection about 2.3% have one here.

Chains of the proteins cited; added tags and fusions are not shown.
Melanocortin receptor 4 (Homo sapiens), P32245, UniProt P32245, whole entry, looked up: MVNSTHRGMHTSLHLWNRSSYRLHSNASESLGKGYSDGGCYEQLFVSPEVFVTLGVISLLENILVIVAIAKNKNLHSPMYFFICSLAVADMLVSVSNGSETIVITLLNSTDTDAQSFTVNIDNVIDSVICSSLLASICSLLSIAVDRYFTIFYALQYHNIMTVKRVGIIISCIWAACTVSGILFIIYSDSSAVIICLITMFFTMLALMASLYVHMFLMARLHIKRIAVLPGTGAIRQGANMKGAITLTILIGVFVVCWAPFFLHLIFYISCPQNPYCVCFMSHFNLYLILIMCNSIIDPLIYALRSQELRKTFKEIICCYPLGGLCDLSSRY
Neuropilin-1 (Homo sapiens), O14786, UniProt O14786, whole entry, looked up: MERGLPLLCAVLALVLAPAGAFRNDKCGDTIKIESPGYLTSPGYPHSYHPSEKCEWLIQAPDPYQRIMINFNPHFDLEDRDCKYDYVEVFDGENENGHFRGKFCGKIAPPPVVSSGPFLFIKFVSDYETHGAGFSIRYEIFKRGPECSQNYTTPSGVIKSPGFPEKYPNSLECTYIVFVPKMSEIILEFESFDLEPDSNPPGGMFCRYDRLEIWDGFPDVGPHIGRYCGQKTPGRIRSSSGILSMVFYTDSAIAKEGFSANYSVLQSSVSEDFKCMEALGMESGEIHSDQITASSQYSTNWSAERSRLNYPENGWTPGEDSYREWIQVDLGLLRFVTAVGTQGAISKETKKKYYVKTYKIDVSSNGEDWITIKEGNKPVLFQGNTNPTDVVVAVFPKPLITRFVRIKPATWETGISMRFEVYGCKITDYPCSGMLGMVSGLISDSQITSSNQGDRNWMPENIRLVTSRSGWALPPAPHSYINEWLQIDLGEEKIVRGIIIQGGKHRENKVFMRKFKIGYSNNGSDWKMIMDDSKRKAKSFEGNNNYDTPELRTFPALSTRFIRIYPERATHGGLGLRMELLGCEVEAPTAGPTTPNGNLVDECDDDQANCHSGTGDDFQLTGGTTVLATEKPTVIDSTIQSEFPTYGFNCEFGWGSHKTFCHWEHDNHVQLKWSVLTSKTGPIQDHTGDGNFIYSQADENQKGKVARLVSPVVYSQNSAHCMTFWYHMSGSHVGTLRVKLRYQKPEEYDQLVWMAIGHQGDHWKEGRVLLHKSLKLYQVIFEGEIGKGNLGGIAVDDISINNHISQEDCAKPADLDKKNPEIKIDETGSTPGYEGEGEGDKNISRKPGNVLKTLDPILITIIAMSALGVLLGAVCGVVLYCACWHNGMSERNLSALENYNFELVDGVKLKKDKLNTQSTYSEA

| item | compound | ARFGAP1 inhibitor | ASAP1 inh | MC4R ag barr | UUG fidelity | MC4R barr ag | CendR NRP1 mod | MC4R antagonist | MOR DOR agonist |
| --- | --- | --- | --- | --- | --- | --- | --- | --- | --- |
| 1 | CC(=O)c1c(C)[nH]c(C(=O)OCC(=O)Nc2ccc([N+](=O)[O-])cc2Cl)c1C | 2 | -3 | 28* | . | 2 | -3 | 8 | 16 |
| 2 | CCOC(=O)c1c(C)[nH]c(C(=O)OCc2ccc([N+](=O)[O-])cc2)c1C | -11 | 3 | 17* | -13 | 4 | -1 | 1 | 4 |
| 3 | CC(=O)c1c(C)[nH]c(C(=O)OCC(=O)Nc2ccccc2Cl)c1C | 5 | -6 | -2 | . | . | 4 | 12 | . |
| 4 | C[C@H](CO)N1C[C@H](C)[C@@H](CN(C)C(=O)C2CCOCC2)Oc2ncc(C3=CCCC3)cc2C1=O | . | . | . | 5 | . | . | . | . |
| 5 | Cn1cnc(S(=O)(=O)N2CCCCN3[C@H](CO)[C@H](c4ccc(C5=CCCC5)cc4)[C@@H]3C2)c1 | . | . | . | -1 | . | . | . | . |
| 6 | CC(=C/c1ccco1)/C=N/NC(=O)CSc1nnc(SCc2ccc(C)cc2)s1 | 5 | 0 | 20* | . | 3 | -16 | 8 | 5 |
| 7 | O=C(CSc1nnc(SCc2ccccc2)s1)N/N=C/C=C\c1ccco1 | -3 | 7 | -1 | . | . | -23 | 3 | . |
| 8 | Cc1ccc(CSc2nnc(SCC(=O)N/N=C/c3c[nH]c4ccccc34)s2)cc1 | 4 | 13 | 12* | -16 | 13* | -33 | -8 | 18* |
| 9 | OC(c1cc(F)cc(Cl)c1)c1ncc(-c2ccc(Cl)cc2)[nH]1 (stereo unspecified) | 21 | -3 | 9.8* | -17 | 2 | 11 | -1 | 7 |
| 10 | Cc1cc(C(O)c2ncc(-c3ccc(Oc4ccccc4)cc3)[nH]2)ccc1F (stereo unspecified) | 14 | -5 | 12* | -18 | 4 | 1 | 2 | 6 |
| 11 | CC(=O)N(C)C[C@@H]1Oc2ncc(-c3ccc(C#N)cc3)cc2C(=O)N([C@@H](C)CO)C[C@@H]1C | . | . | . | 17 | . | . | . | . |
| 12 | O=C(COC(=O)/C=C/c1cccs1)Nc1ccc2ccccc2c1 | 2 | 10 | 16* | . | 3 | 2 | 7 | 7 |
| 13 | O=C(Cc1c(O)c2ccccc2oc1=O)c1ccc(F)cc1 | 2 | 7 | 11* | -20 | 1 | 5 | 6 | 3 |
| 14 | O=c1oc2ccccc2c(O)c1CN1CCCCC1 | -2 | 2 | 2 | -13 | . | 14 | 18 | . |
| 15 | CCCNC(=O)N(C)C[C@H]1Oc2cc(C#CC3CC3)ccc2S(=O)(=O)N([C@@H](C)CO)C[C@H]1C | . | . | . | 11 | . | . | . | . |
| 16 | CCc1nc(NCC2CC2)c2nnn(Cc3ccccc3)c2n1 | 3 | 2 | 12* | -4 | 4 | -14 | -1 | 10 |
| 17 | CS(=O)(=O)Nc1ccc(C(=O)NCCC2=CCCCC2)cc1 | -1 | 0 | -3 | -29 | . | -13 | 4 | . |
| 18 | CS(=O)(=O)N(Cc1ccc(Cl)cc1)c1ccc(C(=O)NCCC2=CCCCC2)cc1 | -1 | 7 | 13* | -13 | 0 | 2 | 7 | 9 |
| 19 | CN1CCN(Cc2nc3ccccc3c(=O)n2Cc2nc(-c3ccc4ccccc4c3)cs2)CC1 | -3 | 6 | 9.7*! | . | 13* | 2 | 1 | 12 |

Copied from above, nos. 1 to 3
| item | compound | ARFGAP1 inhibitor | ASAP1 inh | MC4R ag barr | UUG fidelity | MC4R barr ag | CendR NRP1 mod | MC4R antagonist | MOR DOR agonist |
| --- | --- | --- | --- | --- | --- | --- | --- | --- | --- |
| 1 | CC(=O)c1c(C)[nH]c(C(=O)OCC(=O)Nc2ccc([N+](=O)[O-])cc2Cl)c1C | 2 | -3 | 28* | . | 2 | -3 | 8 | 16 |
| 2 | CCOC(=O)c1c(C)[nH]c(C(=O)OCc2ccc([N+](=O)[O-])cc2)c1C | -11 | 3 | 17* | -13 | 4 | -1 | 1 | 4 |
| 3 | CC(=O)c1c(C)[nH]c(C(=O)OCC(=O)Nc2ccccc2Cl)c1C | 5 | -6 | -2 | . | . | 4 | 12 | . |

High-throughput results as filed in PubChem BioAssay.
